IL-2 act: activators of IL-2 | IL-2 activation reporter assay, cell-based qHTS; stimulated with anti-CD3/CD4/CD28 beads; in transgenic mouse T cells | activation, % (series mostly up to about 46 µM) | 360,000 compounds, 0.065% hits; in the data active = activation above about 50%; inconclusive = mostly about 30% to 49%
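Unstimulated transgenic mouse T cells; 60-min compound exposure; bead-based TCR/CD4/CD28 stimulation; 18 h culture, 37 degrees C; dual fluorescence (EGFP, DsRed) plate cytometry.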
miR-21 FLuc: raises the signal of a miR-21 reporter; HeLa miR-21 FLuc reporter, luciferase, 48 h; Potency, µM (top dose mostly 38.3 µM); AID 2288; 340,000 tested, under 10 active; active = well fitted rising curve with a large enough effect; inconclusive = small, poorly fitted or top-dose-only effect; inactive = no such curve, though single readings can be large or run the other way;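 note: miR-21 action dims this reporter so a rising signal means less miR-21 action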
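Compounds were titrated across several concentrations (up to approximately 40 uM) and incubated 48 hours with HeLa miR-21-FLuc reporter cells (miR-21 target sequence downstream of FLuc, endogenous miR-21). Readout was firefly luciferase luminescence after lytic detection reagent.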
ClpP mod: qHTS Assay for Activators of ClpP; purified B. subtilis ClpP, FRET peptide cleavage, 20 min; Potency, µM (doses to about 57.5 µM); 340,000 compounds, 1.9% hits; active = well fitted falling curve with a large enough effect; inconclusive = small, poorly fitted or top-dose-only effect; inactive = no such curve, though single readings can be large or run the other way; also: the source files actives as falling curves though it sought activators and does not explain the sign; nearly all actives have a fitted effect of over 65% in size
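Purified B. subtilis ClpP, 10 microg/mL final in Tris/HCl pH8 with KCl, BSA, glycerol and Tween-20, cleaved an Abz/nitrotyrosine-quenched decapeptide. Fluorescence (ex 320, em 430) was read at 0 and 20 min at room temperature. Delta was normalized to 5.8 microM ADEP and DMSO/no-enzyme controls.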
A549 tox: counter-screen for Nrf2 inhibitors: cytotoxicity in A549 cells; 390,000 compounds, 0.16% hits; Potency, µM (highest dose often 46 µM), usual class: inhibitors; A549 ARE-Fluc cells, CellTiter-Fluor viability, 18-24 h
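A549 ARE-Fluc cells in 5% FBS OPTI-MEM, 5000 cells/well, rested 2 h then exposed to compounds in concentration-response for 18-24 h at 37 °C. Viability by CellTiter-Fluor fluorescence (Ex 405/Em 525) after 30 min; luciferase luminescence (BugLite, 15 min, RT) read afterwards.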
Nrf2 inh: blocks Nrf2 signaling; AID 504444; Potency, µM (highest dose often 46 µM), usual class: inhibitors; A549 ARE-Fluc reporter, luciferase luminescence, 18-24 h; 360,000 compounds, 2.1% hits; also: nearly all actives have a fitted effect of over 60% in size
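Nrf2 activity is the BugLite luminescence, read 15 min after reagent at room temperature, following CellTiter-Fluor cytotoxicity readout (30 min, 37C). Compound titrations were applied for 18-24 h to 5000 A549 ARE_Fluc cells/well in 5% FBS OPTI-MEM.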
Nrf2 activator: activates Nrf2 signaling; AID 624171; AREc32 ARE-luciferase reporter (MCF7-derived line), luminescence, 24 h; 410,000 compounds, 0.31% hits; Potency, µM (series often up to 46.1 µM), actives largely listed as activators; also: nearly all actives have a fitted effect of over 65% in size
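Reporter line AREc32 (ARE-Fluc), seeded overnight in OPTI-MEM with 5% FBS; compound pin-transferred, 24 hr at 37 deg C, 5% CO2; luminescent read-out.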
Of the large screens only hits and unclear results are named; the others gave an inactive call. Shown are actives, neighbours in structure and some others; about 3.7% of the full set was active somewhere. Unless noted, calls follow the shape of the dose curve; as a rule, active = well fitted curve in the direction sought with a large enough effect; inconclusive = small, poorly fitted or top-dose-only effect, or another doubt; inactive = no such curve, though single readings can be large; an effect the other way counts as inactive or inconclusive.

CC(C#N)Sc1ncnc2sc3c(c12)CCC3 (stereo not drawn)	Nrf2 inh inconclusive
CCc1nn(CC(=O)NC(C)C)c(=O)c2cc3cc(F)ccc3n12	none (no result: IL-2 act)
O=C(O)CCc1ccc(-c2ccccc2)n1Cc1ccco1	ClpP mod 28µM
CC(C)CCN1CCNC(=O)C1CC(=O)N(C)CCCN1CCOCC1 (stereo not drawn)	ClpP mod 32µM
CCOC(=O)c1c(C)oc2ncnc(Nc3ccc(OCC)cc3)c12	none (no result: IL-2 act)
CCOC(=O)C(C(=O)OCC)C1N=C(N)N=C2Oc3ccccc3N21 (stereo not drawn)	ClpP mod 25µM
CCOC(=O)CN1C(=O)C(CC)Oc2ccccc21 (stereo not drawn)	none (no result: Nrf2 inh)
CS(=O)(=O)N1CCN(c2nnc(-c3ccccc3)c3ccccc23)CC1	none
Cc1ccc(-c2nnc(N3CCCCC3)c3ccccc23)cc1	none
c1ccc(-c2nnc(N3CCN(c4ccccn4)CC3)c3ccccc23)cc1	A549 tox inconclusive, Nrf2 inh 18µM
Cc1ccc(-c2nnc(N3CCN(c4ccccn4)CC3)c3ccccc23)cc1	A549 tox inconclusive, Nrf2 inh 23µM
Cc1cc(C)c(Cn2c3ccccc3c3cnn(CC(=O)NC4CCC(C)CC4)c(=O)c32)c(C)c1 (stereo not drawn)	none (no result: IL-2 act)
O=C1CCCC2=C1C1(CCC1)N=C(Nc1nc3ccccc3o1)N2	none (no result: IL-2 act, miR-21 FLuc, ClpP mod, Nrf2 activator)
O=C(NCc1ccccc1)Nc1cccn(Cc2ccccc2F)c1=O	ClpP mod 20µM, Nrf2 inh inconclusive
O=C(NCc1ccccc1)Nc1cccn(Cc2ccccc2)c1=O	ClpP mod 25µM, Nrf2 inh inconclusive
CCOc1ccc(NC(=O)Nc2cccn(Cc3ccccc3)c2=O)cc1	ClpP mod 28µM, A549 tox inconclusive, Nrf2 inh 9.2µM
Cc1cc(NC(=O)NCc2ccccc2)c(=O)n(Cc2ccc(F)cc2)c1	none (no result: ClpP mod)
O=C(NCc1ccccc1)Nc1cccn(Cc2ccc(F)cc2)c1=O	ClpP mod 32µM, Nrf2 inh inconclusive
O=C(Nc1ccc(F)c(F)c1)c1cnn2c1NC(=C1CC1)C=C2C(F)F	none (no result: IL-2 act, miR-21 FLuc, A549 tox, Nrf2 inh, Nrf2 activator)
CCc1nn(CC(=O)NCc2ccc(OC)c(OC)c2)c(=O)c2cc3sc(C)cc3n12	none (no result: IL-2 act)
COc1ccc(Cl)cc1C(=O)Nc1sc2c(c1C(=O)OC(C)C)CCCC2	none (no result: IL-2 act)
O=C(NCc1ccccc1)Nc1cccn(Cc2cccc(F)c2)c1=O	ClpP mod 35µM
Cc1cncn1CCc1nc2c3ccccc3nc(SCC(=O)Nc3cccc(Cl)c3)n2n1	miR-21 FLuc inconclusive, A549 tox 16µM
Cc1n[nH]c(C)c1CCc1nc2c3ccccc3nc(SCC(=O)Nc3ccccc3F)n2n1	A549 tox inconclusive, Nrf2 inh inconclusive
Cc1cccc(NC(=O)CSc2nc3ccccc3c3nc(CCc4c(C)n[nH]c4C)nn23)c1	A549 tox inconclusive, Nrf2 inh 10µM
CCC(C(=O)NCCc1ccccc1)n1nc(C)c2sc3ccccc3c2c1=O (stereo not drawn)	ClpP mod inconclusive (no result: IL-2 act)
COc1cc2c(NC3CCN(C)CC3)nc(N3CCCN(C)CC3)nc2cc1OCCCCN	none (no result: IL-2 act, miR-21 FLuc, A549 tox, Nrf2 inh, Nrf2 activator)
Nc1ccccc1C=C1Cc2ccccc2C1=O	Nrf2 inh inconclusive, Nrf2 activator 2.8µM (no result: miR-21 FLuc)
COc1ccccc1/C=C1\Cc2ccccc2C1=O	none
O=C1C(=Cc2cccc(F)c2)Cc2ccccc21	Nrf2 activator 10µM (no result: miR-21 FLuc, A549 tox, Nrf2 inh)
COc1ccccc1CNC(=O)c1ccc2c(c1)N(Cc1cc(C)ccc1C)C(=O)c1ccccc1S2	none (no result: IL-2 act, Nrf2 inh)
CCCNC(=O)Cn1c(=O)/c(=C/c2ccc(-c3ccc([N+](=O)[O-])cc3)o2)s/c1=C\C(=O)C(C)(C)C	IL-2 act 78, A549 tox inconclusive (no result: miR-21 FLuc, ClpP mod)
CSc1ccc(/C=c2\s/c(=C\C(=O)C(C)(C)C)n(CC(=O)NCCC3=CCCCC3)c2=O)cc1	none
O=C(c1ccccc1)C(c1ccccc1)[n+]1csc2ccccc21 (stereo not drawn)	none (no result: IL-2 act, miR-21 FLuc, A549 tox, Nrf2 inh, Nrf2 activator)
COc1ccccc1C(=O)OCc1cc(=O)n2c(C)csc2n1	Nrf2 inh inconclusive (no result: IL-2 act)
O=C(C1CCN(S(=O)(=O)c2ccc(-n3cnnn3)cc2)CC1)N1CCN(c2ccccc2)CC1	none
CCOc1ccc(S(=O)(=O)N2CCC(C(=O)N3CCCCCC3)CC2)cc1C	Nrf2 inh 18µM
O=C(C1CCN(S(=O)(=O)c2ccc(-n3cnnn3)cc2)CC1)N1CCCCC1	Nrf2 inh 13µM
O=C(Nc1ccc(Cl)c(Cl)c1)C1CCCCC1	none (no result: miR-21 FLuc)
O=C1NC(=O)c2cc(NC(=O)C3CCCCC3)ccc21	ClpP mod 25µM
O=C(Nc1ccc2c(c1)C(=O)NC2=O)c1cccc(Cl)c1	none
O=C(Nc1ccc2c(c1)C(=O)NC2=O)c1cc(Cl)ccc1Cl	ClpP mod 32µM
CC1(C)CC(=O)C2=C(C1)OC1=C(C(=O)CC(C)(C)C1)C2c1ccc(O)c([N+](=O)[O-])c1	none
CC1(C)CC(=O)C2=C(C1)OC1=C(C(=O)CC(C)(C)C1)C2c1ccc(O)cc1O	miR-21 FLuc inconclusive, A549 tox 18µM (no result: Nrf2 inh)
CCc1ccc(Cn2c(CNS(=O)(=O)c3ccc([N+](=O)[O-])cc3)nc3cccnc32)cc1	none (no result: IL-2 act, Nrf2 inh)
Nc1c(C(=O)Nc2ccc3c(c2)OCCO3)nnn1Cc1ccc(F)cc1	ClpP mod 11µM (no result: miR-21 FLuc)
CCc1ccc(NC(=O)Cn2c(=O)n(Cc3nc(C)no3)c(=O)c3cc4c(cc32)OCO4)cc1	Nrf2 inh inconclusive (no result: IL-2 act)
O=C(CN1CCOCC1)Nc1c2c(nc3ccccc13)N(Cc1ccccc1)CC2	ClpP mod 22µM
O=C(CN1CCCC1)Nc1c2c(nc3ccccc13)N(Cc1ccccc1)CC2	ClpP mod 14µM
Cc1ccsc1C(=O)N1CCc2ccccc2C1	none
COc1cc2c(cc1OC)CN(C(=O)CSc1ccccc1C)CC2	ClpP mod 22µM (no result: miR-21 FLuc)
COc1cc2c(cc1OC)CN(C(=O)c1sccc1C)CC2	ClpP mod 28µM
O=C1CCc2cc([S+](=O)([O-])NC3CCOCC3)ccc2N1	none (no result: IL-2 act, miR-21 FLuc, ClpP mod, Nrf2 activator)
O=C(Nc1cccnc1)C1(F)C(F)(F)C(F)(F)C(F)(F)C(F)(F)C1(F)F	Nrf2 activator 10µM (no result: Nrf2 inh)
COc1ccc(N2CCN(C(=O)c3cc(-c4ccc(C)c(F)c4)on3)CC2)cc1	none (no result: IL-2 act)
O=c1oc2ccc3ccccc3c2cc1-c1nnc(-c2ccccc2)o1	ClpP mod 14µM (no result: Nrf2 inh)
CCCCN(CC)C(=O)C1CCCN(c2ncnc3c2nc2n3CCCCC2)C1 (stereo not drawn)	none (no result: IL-2 act)
C=C(C)COc1ccc(-c2nc(N)nc(C)c2-c2ccc(OC)cc2)c(O)c1	ClpP mod 25µM

Assay outcomes deposited in PubChem by National Center for Advancing Translational Sciences (NCATS).
